Test results reported in article PMC11235159, “Targeting a microbiota Wolbachian aminoacyl-tRNA synthetase to block its pathogenic host” (Science Advances, 2024).

The chains behind the UniProt entries cited, without tags or fusion partners.
UniProt Q5GS31, whole entry: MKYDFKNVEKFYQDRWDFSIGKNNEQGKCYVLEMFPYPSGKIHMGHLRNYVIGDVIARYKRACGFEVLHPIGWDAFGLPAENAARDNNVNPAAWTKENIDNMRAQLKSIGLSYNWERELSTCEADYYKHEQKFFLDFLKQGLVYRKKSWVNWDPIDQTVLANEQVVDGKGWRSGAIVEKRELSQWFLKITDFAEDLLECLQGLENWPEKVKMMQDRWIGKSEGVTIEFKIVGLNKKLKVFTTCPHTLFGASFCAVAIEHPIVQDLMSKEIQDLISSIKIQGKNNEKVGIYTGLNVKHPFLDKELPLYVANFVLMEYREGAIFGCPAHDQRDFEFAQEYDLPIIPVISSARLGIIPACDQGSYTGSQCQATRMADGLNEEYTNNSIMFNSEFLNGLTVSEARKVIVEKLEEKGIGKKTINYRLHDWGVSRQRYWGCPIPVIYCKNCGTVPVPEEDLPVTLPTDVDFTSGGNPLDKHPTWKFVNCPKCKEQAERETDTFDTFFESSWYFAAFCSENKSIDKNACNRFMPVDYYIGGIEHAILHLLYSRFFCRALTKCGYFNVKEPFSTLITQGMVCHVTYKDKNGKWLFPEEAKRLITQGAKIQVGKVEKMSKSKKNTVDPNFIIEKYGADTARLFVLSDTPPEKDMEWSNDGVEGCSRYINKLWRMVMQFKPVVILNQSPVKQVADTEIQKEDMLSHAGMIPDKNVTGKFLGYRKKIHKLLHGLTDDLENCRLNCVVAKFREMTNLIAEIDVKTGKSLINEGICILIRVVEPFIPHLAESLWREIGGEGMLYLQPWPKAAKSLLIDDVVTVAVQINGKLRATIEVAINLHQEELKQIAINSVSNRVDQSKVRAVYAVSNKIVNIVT

Tests used:
[1] = target: T1, Wolbachia LeuRS (full-length) (Wolbachia sp. subsp. Brugia malayi, UniProt Q5GS31)
[2] = test system: W. pipientis (wAlbB) in C6/36 cells; assay: A·WOL anti-Wolbachia screening assay in infected C6/36 (wAlbB) insect cells; format: cell-based, Wolbachia pipientis; settings: read-out: Efficacy in Infected Host EC50; C6/36 (wAlbB) cells, 7 days
[3] = target: T1, Wolbachia LeuRS (full-length); assay: Reactivation rate (half-life of inhibition) of Wolbachia LeuRS after dilution of inhibitor complex; settings: time for LeuRS to recover 50% of its activity after 200-fold dilution

| SMILES | IC50 [1] | EC50 [2] | T ½ (half-life inhibition time, reactivation rate) [3] |
| --- | --- | --- | --- |
| COc1cccc2c1B(O)O[C@@H]2CN | 340 nM | 3770 nM |  |
| NC[C@H]1OB(O)c2c(OCCCN3CCOCC3)ccc(Br)c21 | 210 nM | 1430 nM |  |
| NC[C@H]1OB(O)c2c(OCCCNc3nccs3)ccc(Br)c21 | 120 nM | 570 nM | 55 min |
| COc1ccc(Br)c2c1B(O)O[C@@H]2CN |  | 360 nM |  |
| CN(C(=O)CCOc1ccc(Br)c2c1B(O)O[C@@H]2CN)c1nccs1 | 140 nM | 6900 nM | 2.5 min |
| COc1ccc(Cl)c2c1B(O)O[C@@H]2CN | 290 nM | 330 nM |  |
